## Antibody variant affinities, Ab-14 heavy chain, assay B

Antigen: PDVDLGDISGINAS, a 14-residue peptide of the SARS-CoV-2 spike HR2 region.

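The starting antibody came from a phage panning campaign against this peptide. The variants were designed computationally from a first round of random CDR variants and then made and measured. Their group label is 14H_GP_Gibbs (GP: Gaussian process model; Gibbs: Gibbs sampling; a sequence that several methods proposed may carry one label only). The assay is AlphaSeq: two haploid yeast populations carry antibody and antigen on their surface. Pairs that bind mate more often; barcode pairs of the diploids are counted by sequencing. Scores were corrected for input abundance and mapped to Kd with protein pairs of known affinity run in the same pool. Each pool was mated in six replicate cultures.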

Each scFv is VH, three GGGGS repeats, VL, as in the parent Ab-14, and differs from it in the CDRs of the heavy chain only.
VH: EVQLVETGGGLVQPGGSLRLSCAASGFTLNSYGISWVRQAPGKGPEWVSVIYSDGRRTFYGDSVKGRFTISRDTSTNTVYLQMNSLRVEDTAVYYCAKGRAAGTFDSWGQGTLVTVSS
VL: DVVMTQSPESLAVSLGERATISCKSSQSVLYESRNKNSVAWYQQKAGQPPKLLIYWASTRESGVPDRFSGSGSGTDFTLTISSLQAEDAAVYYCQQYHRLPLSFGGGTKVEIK

Each variant is given by its three heavy chain CDRs, as the data file delimits them; those of the parent are GFTLNSYGIS, VIYSDGRRTFYGDSVK, GRAAGTFDS. The read-out is the apparent dissociation constant on a log10 scale (nM): the lower, the stronger. The mean shown is taken over the replicates in which the pair was detected. A pair that was not seen in that replicate is written "ND"; this usually means weak binding, but a binder can also be missed.

| CDR-H1 | CDR-H2 | CDR-H3 | replicates, log10 nM | mean log10 Kd (nM) | control signals |
|---|---|---|---|---|---|
| MFDLNSYGIS | VIYSDGRRTAYGDSVK | GREAGTFDS | 0.75 0.01 -0.13 -0.44 -0.49 0.39 | 0.02 | 0/18 |
| GFHLNSYGIS | VIYSDGRRTFYGDSVK | GRNAGTFDT | 0.38 ND ND 1.30 ND 1.54 | 1.07 | 0/18 |
| GFSLNSYGIS | VIYSDGRRTFYADQVK | GRTAGTFDK | 0.04 0.32 0.00 0.71 -0.38 0.60 | 0.22 | 0/18 |
| GFGLNSYGIS | VIYSDGRRTFYSDSVK | GKNAGTFDS | ND ND -0.94 ND ND 0.08 | -0.43 | 0/18 |
| GFTLNSYGIS | VIYSDGKRTFYGDQVK | GRNAGTFDS | 2.92 1.82 2.47 1.27 1.34 2.58 | 2.06 | 0/18 |
| GFTLNSYGIS | VIYSDGQRTFYIDSVK | GRVAGTFDT | ND ND ND ND ND ND | ND | 0/18 |
| GFELNSYGIS | VIYSDGKRTFYGDDVK | GRQAGTFDS | 0.50 1.04 0.57 0.24 0.90 1.28 | 0.76 | 0/18 |
| GFQLNSYGIS | VIYSDGRRTFYGDQVK | GRTAGTFDL | 2.26 1.51 2.32 ND 1.23 1.20 | 1.70 | 0/18 |
| GFDLNSYGIS | VIYSDGRRTFYKDSVK | GKEAGTFDT | -0.87 0.03 0.22 -0.45 -0.49 -0.76 | -0.39 | 0/18 |
| GFSLNSYGIS | VIYSDGRRTAYADSVK | GRQAGTFDS | 0.34 0.21 0.01 0.15 -0.13 0.19 | 0.13 | 1/18 (2.22) |
| HFDLNSYGIS | VIYSDGRRTFYIDSVK | GRQAGTFDS | ND 2.24 1.14 1.32 2.36 1.08 | 1.63 | 0/18 |
| KFSLNDYGIS | VIYSDGRRTFYGDSVK | GQTAGTFDS | 1.29 0.95 0.11 0.26 0.17 0.62 | 0.57 | 0/18 |
| GFNLNSYGIS | VIYSDGRRTFYGDNVK | GQEAGTFDS | 0.37 0.98 0.59 -0.14 1.26 0.35 | 0.57 | 0/18 |
| GFDLNEYGIS | VIYSDGRRTFYGDSVK | GEAAGTFDL | 1.19 0.43 0.34 0.45 0.45 0.60 | 0.58 | 0/18 |
| GFQLNSYGIS | VIYSDGMRTFYSDSVK | GRTAGTFDS | 0.49 0.43 0.95 1.57 1.42 1.24 | 1.02 | 0/18 |
| KFQLNSYGIS | VIYSDGKRTFYADSVK | GRNAGTFDS | ND ND ND ND 2.51 3.01 | 2.76 | 0/18 |
| GFTLNSYGIS | VIYSDGVRTFYGDSVK | GQAAGTFDV | ND 0.85 1.25 ND 1.27 0.92 | 1.07 | 1/18 (1.66) |
| GFELNDYGIS | VIYSDGRRTFYGDSVK | GKEAGTFDT | ND ND ND ND 3.05 3.36 | 3.21 | 0/18 |
| GFSLNWYGIS | VIYSDGRRTFYSDSVK | GQAAGTFDS | 1.47 1.19 ND 1.72 1.46 1.70 | 1.51 | 0/18 |
| GFDLNSYGIS | VIYSDGRRTFYGDDVK | GSEAGTFDS | -0.03 0.13 0.18 0.19 0.29 0.52 | 0.21 | 0/18 |
| GFTLNSYGIS | VIYSDGKRTFYGDSVK | GQTAGTFDV | ND ND ND ND ND ND | ND | 0/18 |
| SFSLNSYGIS | VIYSDGRRTFYGDSVK | GQAAGTFDK | ND ND ND ND ND ND | ND | 0/18 |
| GFQLNSYGIS | VIYSDGRRTFYVDSVK | GREAGTFDT | 1.42 0.81 0.75 0.80 1.45 1.06 | 1.05 | 0/18 |
| GFELNMYGIS | VIYSDGRRTFYGDSVK | GRYAGTFDS | 0.87 ND ND -0.18 0.42 ND | 0.37 | 0/18 |
| GFHLNSYGIS | VIYSDGRRTFYQDSVK | GREAGTFDA | -0.35 -0.05 -0.28 0.05 -0.26 1.65 | 0.13 | 0/18 |
| GFDLNSYGIS | VIYSDGRRTFYTDNVK | GRTAGTFDS | 0.06 -0.01 0.67 -0.51 -0.14 0.09 | 0.03 | 0/18 |
| GFSLNSYGIS | VIYSDGHRTFYHDSVK | GRTAGTFDS | 1.20 0.04 0.16 0.19 0.50 0.51 | 0.44 | 0/18 |
| GFTLNSYGIS | VIYSDGKRTFYGDDVK | GQAAGTFDL | ND ND ND ND ND ND | ND | 0/18 |
| GFDLNSYGIS | VIYSDGRRTFYADKVK | GQAAGTFDN | 0.56 0.57 0.80 0.45 0.51 0.44 | 0.56 | 0/18 |
| GFSLNSYGIS | VIYSDGRRTFYADMVK | GEAAGTFDK | 1.76 1.38 ND ND ND 2.12 | 1.75 | 0/18 |
| MFSLNSYGIS | VIYSDGRRTFYIDSVK | GKAAGTFDS | ND ND ND ND ND ND | ND | 0/18 |
| GFKLNSYGIS | VIYSDGRRTAYGDSVK | GRQAGTFDS | 2.15 0.64 0.83 0.79 2.07 1.37 | 1.31 | 0/18 |
| HFDLNSYGIS | VIYSDGRRTFYADSVK | GQTAGTFDS | 0.05 0.24 0.02 0.07 -0.02 0.12 | 0.08 | 0/18 |
| GFTLNSYGIS | VIYSDGRRTFYQDSVK | GQAAGTFDK | ND 1.54 1.51 1.48 0.44 ND | 1.24 | 0/18 |
| GFQLNNYGIS | VIYSDGRRTFYGDQVK | GRTAGTFDS | 0.49 ND ND ND ND ND | 0.49 | 0/18 |
| GFDLNSYGIS | VIYSDGWRTFYTDSVK | GRQAGTFDS | 1.45 1.13 1.90 0.90 0.61 0.80 | 1.13 | 0/18 |

The 6 strongest on average among those seen in every replicate, once more:

| CDR-H1 | CDR-H2 | CDR-H3 | replicates, log10 nM | mean log10 Kd (nM) | control signals |
|---|---|---|---|---|---|
| GFDLNSYGIS | VIYSDGRRTFYKDSVK | GKEAGTFDT | -0.87 0.03 0.22 -0.45 -0.49 -0.76 | -0.39 | 0/18 |
| MFDLNSYGIS | VIYSDGRRTAYGDSVK | GREAGTFDS | 0.75 0.01 -0.13 -0.44 -0.49 0.39 | 0.02 | 0/18 |
| GFDLNSYGIS | VIYSDGRRTFYTDNVK | GRTAGTFDS | 0.06 -0.01 0.67 -0.51 -0.14 0.09 | 0.03 | 0/18 |
| HFDLNSYGIS | VIYSDGRRTFYADSVK | GQTAGTFDS | 0.05 0.24 0.02 0.07 -0.02 0.12 | 0.08 | 0/18 |
| GFHLNSYGIS | VIYSDGRRTFYQDSVK | GREAGTFDA | -0.35 -0.05 -0.28 0.05 -0.26 1.65 | 0.13 | 0/18 |
| GFSLNSYGIS | VIYSDGRRTAYADSVK | GRQAGTFDS | 0.34 0.21 0.01 0.15 -0.13 0.19 | 0.13 | 1/18 (2.22) |

The parent sequence was in this pool as ten entries: three were never detected, three once, and four in most replicates, with averages from 0.34 to 2.37. The authors averaged sequences with at least three values out of six and counted those with two or fewer as poor binders. A sequence measured in both rounds can read differently, since the two assays cover different ranges. As a blank, each scFv also met three strains without target: over all heavy chain designs, 1% of these pairings were detected, typically at 2.08 and seldom below 0.84. For each scFv, signals with the empty controls are counted beside the result, with their mean in brackets.

From the AlphaSeq antibody data of Li et al. 2023 (doi:10.1038/s41467-023-39022-2), copy in the FLAb collection.